One compound from patent US8394792B2 can be followed below.

Sequences of proteins named here, by UniProt entry; tags and fusion partners are left off.
UniProt Q96S37, whole entry: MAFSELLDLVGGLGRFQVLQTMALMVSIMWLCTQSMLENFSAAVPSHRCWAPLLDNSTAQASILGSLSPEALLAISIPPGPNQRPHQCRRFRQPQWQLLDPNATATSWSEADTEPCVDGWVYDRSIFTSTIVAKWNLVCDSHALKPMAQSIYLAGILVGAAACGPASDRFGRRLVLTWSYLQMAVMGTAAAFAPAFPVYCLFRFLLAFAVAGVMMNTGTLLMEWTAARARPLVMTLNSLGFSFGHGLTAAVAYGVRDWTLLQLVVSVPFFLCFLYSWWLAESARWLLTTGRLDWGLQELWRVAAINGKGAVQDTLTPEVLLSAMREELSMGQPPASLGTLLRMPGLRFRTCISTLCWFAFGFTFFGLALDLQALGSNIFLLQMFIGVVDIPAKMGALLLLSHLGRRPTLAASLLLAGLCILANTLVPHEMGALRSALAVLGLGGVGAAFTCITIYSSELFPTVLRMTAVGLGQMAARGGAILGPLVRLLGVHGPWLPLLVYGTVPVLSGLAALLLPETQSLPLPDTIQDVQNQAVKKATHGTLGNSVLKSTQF
UniProt P11712, whole entry: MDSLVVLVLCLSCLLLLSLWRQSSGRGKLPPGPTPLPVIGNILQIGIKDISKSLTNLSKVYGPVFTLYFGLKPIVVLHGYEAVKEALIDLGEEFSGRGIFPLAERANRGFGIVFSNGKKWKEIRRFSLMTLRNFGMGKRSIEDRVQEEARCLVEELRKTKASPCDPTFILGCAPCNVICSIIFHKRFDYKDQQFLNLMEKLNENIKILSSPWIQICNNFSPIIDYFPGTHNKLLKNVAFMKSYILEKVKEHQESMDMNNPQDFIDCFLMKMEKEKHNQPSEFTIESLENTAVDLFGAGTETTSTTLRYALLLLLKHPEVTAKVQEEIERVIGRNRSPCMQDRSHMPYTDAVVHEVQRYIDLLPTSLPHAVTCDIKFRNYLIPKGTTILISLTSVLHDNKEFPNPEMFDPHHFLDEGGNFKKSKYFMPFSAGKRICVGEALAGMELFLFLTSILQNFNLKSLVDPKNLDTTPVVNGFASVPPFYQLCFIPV

In general, IC50 refers to the concentration that inhibits the measured activity by half.

For one data set, the target named is hURAT1 (Homo sapiens, UniProt Q96S37). Description: Test for inhibiting urate reuptake activity via hURAT1 (uric acid transport assay in hURAT1-overexpressed HEK293 cell line). The settings on record: read-out: IC50 (μM) hURAT, level of uric acid reuptake inhibition; hURAT1-overexpressed HEK293 cells, [14C]-uric acid uptake, 100 μM uric acid.
In a further data set the target is CYP2C9 (Homo sapiens, UniProt P11712).

On to `O=C(c1cc(Br)c(O)c(Br)c1)N1CCOc2ncc(-c3cccc4[nH]ccc34)cc21`, for which the concentration for half-maximal inhibition (IC50) was determined as 0.0048 µM on hURAT1 and 10.8 µM at CYP2C9.
